# Reference: PMC6879491 (Nature Communications, 2019)
# B1: CD3 on Jurkat cells (receptor, human (endogenous in Jurkat), UniProt P07766 23-207, looked up)
# chain: DGNEEMGGITQTPYKVSISGTTVILTCPQYPGSEILWQHNDKNIGGDEDDKNIGSDEDHLSLKEFSELEQSGYYVCYPRGSKPEDANFYLYLRARVCENCMEMDVMSVATIVIVDICITGGLLLLVYYWSKNRKAKAKPVTRGAGAGGRQRGQNKERPPPVPNPDYEPIRKGQRDLYSGLNQRRI
# notes: CD3ε, the chain addressed by the diL2K scFv, on the surface of CD3-positive cells; On cells CD3ε stands within the TCR-CD3 complex; also called CD3ε; CD3 antigen; source: on donor T cells (functional assays)
# Columns and labels:
# [1] = biological target: T1, VLαCD3-GpL (mouse, de-immunized); test: cell-bound Gaussia luciferase activity (equilibrium binding on intact cells); Jurkat (CD3, CD45) or U266 (HLA-A2) cells, 1 h at 37 °C with increasing concentrations of GpL fusion proteins, washed five times with ice-cold PBS; specific binding = total minus non-specific; conditions: partners not purified
# T1 construct: isolated VL domain of the anti-CD3ε antibody diL2K; as the anti-CD3 VL of m1 (GenBank MN432902); also called VLCD3 fused to GpL; luciferase-tagged anti-CD3 VL variable domain; source: Hek293, electroporated, secreted, in supernatant
# [2] = biological target: T2, VHαCD3-GpL (mouse, de-immunized); test: as above; conditions: partners not purified
# T2 construct: isolated VH domain of the anti-CD3ε antibody diL2K; as the anti-CD3 VH of m2 (GenBank MN432904); also called VHCD3 fused to GpL; luciferase-tagged anti-CD3 VH variable domain; source: Hek293, electroporated, secreted, in supernatant
binder,measurement,setting,value
B1,binding result,[1],no binding
same,binding result,[2],no binding
